Results published in publication PMC12250624, “Anti-Amyloid Aggregation Effects of Gobaishi (Galla chinensis) and Its Active Constituents” (Molecules, 2025).

Protein sequences, listed by entry. Tags and fused reporters are not part of them. Residues count along the entry.
UniProt P05067, 672-713: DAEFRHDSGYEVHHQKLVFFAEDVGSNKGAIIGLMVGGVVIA

Molecular target: Aβ42 (amyloid-beta) (Homo sapiens, UniProt P05067)
Parameters: gene APP

O=C(OC[C@H]1O[C@@H](OC(=O)c2cc(O)c(O)c(O)c2)[C@H](OC(=O)c2cc(O)c(O)c(O)c2)[C@@H](OC(=O)c2cc(O)c(O)c(O)c2)[C@@H]1OC(=O)c1cc(O)c(O)c(O)c1)c1cc(O)c(O)c(O)c1 [compound 1, pentagalloyl glucose]
ThT fibril aggregation assay and turbidity assay, 30 μM Aβ42, 24 h at 37 °C: This result provides physical evidence that PGG directly inhibits the growth of large, light-scattering Aβ aggregates.
